For this test, the target named is T1, mUSP18 (Mus musculus, UniProt Q9WTV6).
T1 construct: (46-368); His-tag (N); made in house
T1 sequence (Q9WTV6 46-368): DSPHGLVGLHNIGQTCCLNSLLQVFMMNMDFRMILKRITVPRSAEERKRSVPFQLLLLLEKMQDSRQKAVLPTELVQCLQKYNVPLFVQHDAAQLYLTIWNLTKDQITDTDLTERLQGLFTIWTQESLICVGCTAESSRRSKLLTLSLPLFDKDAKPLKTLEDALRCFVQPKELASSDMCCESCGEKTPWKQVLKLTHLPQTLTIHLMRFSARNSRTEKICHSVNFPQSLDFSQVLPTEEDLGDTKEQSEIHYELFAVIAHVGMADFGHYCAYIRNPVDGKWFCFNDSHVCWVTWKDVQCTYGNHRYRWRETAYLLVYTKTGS
The test is described as follows: High-throughput screening, ISG15ct-RhoMP, single dose 1.25 µM. Format: biochemical, murine.

Read-outs that look alike come from different tables or passages of the source.

As for `CCCCNc1ccc(C(=O)O)cc1` [CA047], the inhibition at 1.25 µM was found to be 40.1% (read-out: %inh CA + DIC/HOBT) and 2.72% (read-out: %inh CA only).
